The chains behind the UniProt entries cited, without tags or fusion partners.
UniProt P14416, whole entry: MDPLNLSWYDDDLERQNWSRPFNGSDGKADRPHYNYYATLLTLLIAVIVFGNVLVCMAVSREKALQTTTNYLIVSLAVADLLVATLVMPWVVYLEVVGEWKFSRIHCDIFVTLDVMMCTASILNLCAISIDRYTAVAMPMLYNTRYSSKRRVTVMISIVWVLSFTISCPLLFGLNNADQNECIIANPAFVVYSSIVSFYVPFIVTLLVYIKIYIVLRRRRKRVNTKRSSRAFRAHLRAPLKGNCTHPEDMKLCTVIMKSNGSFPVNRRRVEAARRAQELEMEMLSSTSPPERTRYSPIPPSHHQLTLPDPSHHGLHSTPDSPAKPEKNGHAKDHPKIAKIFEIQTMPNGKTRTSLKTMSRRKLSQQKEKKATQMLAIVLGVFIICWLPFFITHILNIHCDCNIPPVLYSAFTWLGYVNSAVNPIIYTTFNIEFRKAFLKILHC

The entries are a selection whose mix differs from that of the whole data set. Calls of active or inactive are those of the source. Cut-off read from the data, not from the text of the source: active = activation above about 40%; inconclusive = between about 15% and that limit; inactive = weaker than that.
These compounds were tested against D(2) dopamine receptor (Homo sapiens) (UniProt P14416) (assay: Beta-Arrestin HTS for Positive Allosteric Modulators of the Human D2 Dopamine Receptor: Agonists). Details: DiscoveRx PathHunter D2 beta-arrestin, luminescence, 90 min; active compounds read high; 100% = 57 uM dopamine signal.
Procedure, shortened: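 Agonist mode: compounds alone added to overnight-plated D2 PathHunter cells for 90 min at 37 C, with 57 uM final dopamine (EC100) defining full response. Beta-arrestin recruitment detected by chemiluminescent reagent, read after 1 h at ambient temperature.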
With `COc1cc(C(=O)NCC2(N3CCOCC3)CCCCC2)cc(Cl)c1OC(C)C` the activation was inactive: 4.13%.
For `O=[As](O)(O)c1cccnc1`, the activation was inactive: -3.55%.
With `O=C(OC1CN2CCC1CC2)c1ccc(Cl)cc1` (stereo not given) the activation was inactive: -1.89%.
In the case of `CCOC(=O)c1ccc(NP(C)(=O)Oc2cc(C)cc(C)c2)cc1` (stereo not given), the activation is reported as inactive: -1.75%.
In the case of `Cc1cc(C)cc(OP(C)(=O)Nc2ccc(C)cc2C)c1` (stereo not given), the activation is reported as inactive: -3.61%.
For `O=[As](O)(c1cccc(O)c1)c1cccc(O)c1`, the activation was inactive: -0.903%.
With `Cc1cccc(OCC(=O)OC2CN3CCC2CC3)c1` (stereo not given) the activation was inactive: 1.5%.
In the case of `CCCOP(=S)(Nc1nc(N)cc(=O)[nH]1)OCCC`, the activation is reported as inactive: 0.447%.
In the case of `Cc1ccc(C)c(NP(C)(=O)Oc2ccccc2)c1` (stereo not given), the activation is reported as inactive: -1.74%.
In the case of `Cc1ccc(NCCc2c([N+](=O)[O-])cc([N+](=O)[O-])cc2[N+](=O)[O-])cc1`, the activation is reported as inactive: 8.75%.
In the case of `Nc1cccc2c([As](=O)(O)O)cccc12`, the activation is reported as inactive: 8.34%.
With `CP(=O)(Nc1cccc(Br)c1)Oc1ccccc1` (stereo not given) the activation was inactive: -3.78%.
With `Cc1cc(C)cc(OP(C)(=O)Nc2ccccn2)c1` (stereo not given) the activation was inactive: -0.557%.
For `CCOP(=O)(Nc1cccc2ccccc12)OCC`, the activation was inactive: -3.31%.
In the case of `CS(=O)(=O)c1cc([N+](=O)[O-])c2no[n+]([O-])c2c1`, the activation is reported as inactive: 7.78%.
`O=P(Nc1nccs1)(c1ccccc1)c1nc2ccccc2s1` (stereo not given) was tested, and the activation was inactive: -6.07%.
With `O=P(Nc1nccs1)(Oc1ccccc1)Oc1ccccc1` the activation was inactive: -0.432%.
In the case of `CCOP1(=S)c2c(C)nn(CCC#N)c2N=C(c2ccccc2F)N1C` (stereo not given), the activation is reported as inactive: -4.82%.
In the case of `O=C(O)COc1ccc([As](=O)(O)O)cc1[N+](=O)[O-]`, the activation is reported as inactive: -1.09%.
`Nc1ccccc1[As](=O)(O)c1ccccc1` was tested, and the activation was inactive: -2.49%.
`NC(=O)Nc1ccc([As](=O)(O)O)cc1` was tested, and the activation was inactive: -1.51%.
With `CN(C(=O)Cc1ccc(Cl)c(Cl)c1)[C@H]1CC[C@@]2(CCCO2)C[C@@H]1N1CCCC1` the activation was inactive: -7.75%.
In the case of `CC1=NCCc2c1[nH]c1ccccc21.O=[N+]([O-])c1cc([N+](=O)[O-])c(O)c([N+](=O)[O-])c1`, the activation is reported as inactive: -5.27%.
For `CN(C)C(=O)c1cc([N+](=O)[O-])cc2c1-c1c(cc([N+](=O)[O-])cc1[N+](=O)[O-])C2=O`, the activation was inactive: 6.69%.
`O=[N+]([O-])c1ccc2c(c1)nnn2O` was tested, and the activation was inactive: -5.24%.
With `CN(C(=O)Cc1ccccc1)[C@@H]1CC[C@]2(CCCO2)C[C@H]1N1CCCC1` the activation was inactive: -2.48%.
`CCOP1(=S)c2c(C)nn(CCC#N)c2N=C(c2ccc(F)cc2)N1C` (stereo not given) was tested, and the activation was inactive: -0.124%.
With `N#CCCN(C(=O)COC(=O)C(O)(c1ccccc1)c1ccccc1)c1ccc(F)cc1` the activation was inactive: -4.77%.
For `COc1cc(C2NCCC3(OCCO3)C2(C)C)cc(OC)c1OC.O=[N+]([O-])c1cc([N+](=O)[O-])c(O)c([N+](=O)[O-])c1` (stereo not given), the activation was inactive: -5.36%.
`Cc1ccc(C(=O)OC2CN3CCC2CC3)cc1` (stereo not given) was tested, and the activation was inactive: 2.02%.
With `CC1CCC(C(C)C)C(OP(=O)(Nc2ccccn2)c2ccccc2)C1` (stereo not given) the activation was inactive: -4.65%.
`Cc1nn(-c2ccccc2)c2c1P(=O)(N1CCOCC1)N(C)C(c1ccccc1)=N2` (stereo not given) was tested, and the activation was inactive: -1.47%.
For `CCCC1OP(=O)(Nc2ccccc2)OCC1CC` (stereo not given), the activation was inactive: -2.26%.
With `O=C(/C=C/c1ccccc1)OC1CN2CCC1CC2` (stereo not given) the activation was inactive: -6.32%.
With `O=[N+]([O-])c1cc([N+](=O)[O-])c(Nc2nnnn2CCO)c([N+](=O)[O-])c1` the activation was inactive: -7.17%.
For `CC1=C2N=C(C=C3N=C(C(C)=C4[N-][C@@](C)([C@@H]5N=C1[C@](C)(CCC(=O)NC[C@@H](C)OP(=O)([O-])O[C@H]1[C@@H](O)[C@@H](n6cnc7cc(C)c(C)cc76)O[C@@H]1CO)[C@H]5CC(N)=O)[C@@](C)(CC(N)=O)[C@@H]4CCC(N)=O)[C@@](C)(CC(N)=O)[C@@H]3CCC(N)=O)C(C)(C)[C@@H]2CCC(N)=O.[C-]#N.[Co+3]`, the activation was inactive: -6.99%.
`CN(C)C1(CNC(=O)c2ccc(S(C)(=O)=O)cc2)CCCCC1` was tested, and the activation was inactive: -4.82%.
With `O=P1(Nc2ncccn2)COc2ccccc2OC1` the activation was inactive: 0.0052%.
`CN1CCCCC1COC(=O)C1(O)c2ccccc2CCc2ccccc21` (stereo not given) was tested, and the activation was inactive: -0.671%.
With `COc1ccccc1OP(C)(=O)Nc1c(C)cccc1C` (stereo not given) the activation was inactive: -1.92%.
`NS(=O)(=O)c1cccc(NC(=O)COC(=O)C(O)(c2ccccc2)c2ccccc2)c1` was tested, and the activation was inactive: 0.0479%.
In the case of `O=P1(Nc2ccc(Br)cn2)COc2ccccc2OC1`, the activation is reported as inactive: -1.6%.
`Cc1ccc(OCC(=O)OC2CN3CCC2CC3)cc1` (stereo not given) was tested, and the activation was inactive: -3.36%.
For `O=[As](O)(c1cccs1)c1cccs1`, the activation was inactive: -9.42%.
With `Nc1cccc([As](=O)(O)c2ccccc2)c1` the activation was inactive: -4.74%.
For `CP(=O)(Nc1ccc(SC(F)(F)F)cc1)Oc1ccccc1` (stereo not given), the activation was inactive: -6.14%.
For `CCCOc1ccc(NP(C)(=O)Oc2ccc(Cl)cc2)cc1` (stereo not given), the activation was inactive: -3.91%.
With `CN(CCCl)Cc1cc(Cl)c(NC2=NCCN2)c(Cl)c1` the activation was inactive: -3.87%.
For `CCOP(=O)(Nc1ccc(C)cn1)OCC`, the activation was inactive: 3.13%.
For `Nc1ccc(CCCCOc2ccccc2)cc1.O=[N+]([O-])c1cc([N+](=O)[O-])c(O)c([N+](=O)[O-])c1`, the activation was inactive: -14.5%.
In the case of `CCOP(=O)(NC(=NC(C)c1ccccc1)NC(C)c1ccccc1)OCC` (stereo not given), the activation is reported as inactive: 6.81%.
For `O=[N+]([O-])c1cc([N+](=O)[O-])c(-n2nnc3ccccc32)c([N+](=O)[O-])c1`, the activation was inactive: -7.45%.
`O=C(O)C(O)c1ccc(N(CCCl)CCCl)cc1.c1ccncc1` (stereo not given) was tested, and the activation was inactive: -3.08%.
With `CCC1=CC2Cc3nc4ccc(Cl)cc4c(N)c3C(C1)C2` (stereo not given) the activation was inactive: 3.24%.
For `O=P1(Nc2ccccn2)COc2ccccc2OC1`, the activation was inactive: 2.26%.
For `CC(C)(C)C(=O)NC(Sc1ncccn1)C(Cl)(Cl)Cl` (stereo not given), the activation was inactive: -4.11%.
`CN(Cc1cccnc1)C(=O)COc1ccc(Cl)c(Cl)c1.O=[N+]([O-])c1cc([N+](=O)[O-])c(O)c([N+](=O)[O-])c1` was tested, and the activation was inactive: -13.7%.
With `Clc1n[nH]nc1-c1nn[nH][15n]1` the activation was inactive: -1.88%.
With `O=P1(N(CCCl)CCCl)NCCC(C(F)(F)F)O1` (stereo not given) the activation was inactive: -1.63%.
For `COc1ccccc1CNC(=O)COC(=O)C(O)(c1ccccc1)c1ccccc1`, the activation was inactive: -4.93%.
With `CC1(CBr)Cn2c(nc3ccccc3c2=O)S1` (stereo not given) the activation was inactive: 0.424%.
In the case of `Cc1nc2ccc3ccccc3c2s1.O=[N+]([O-])c1cc([N+](=O)[O-])c(O)c([N+](=O)[O-])c1`, the activation is reported as inactive: -10.2%.
In the case of `CN(C(=O)Cc1ccc(Cl)c(Cl)c1)[C@@H]1CCCC[C@H]1N1CCCC1`, the activation is reported as inactive: -6.55%.
For `CC(C)/C=N\N=C(\N)N[N+](=O)[O-]`, the activation was inactive: -3.74%.
With `Cc1ccc(S(=O)(=O)N(CCCN)CCCc2c(C)nc(N)[nH]c2=O)cc1.O=[N+]([O-])c1cc([N+](=O)[O-])c(O)c([N+](=O)[O-])c1` the activation was inactive: -16.5%.

From PubChem BioAssay AID624465 (National Center for Advancing Translational Sciences (NCATS), 2012)
